{"source": "patent US10800732B2", "about": "“Substituted malonamides and their use as antibacterial drugs” (National Taiwan University, priority 2015, dated 2020)", "test_system": "MRSA (ATCC 33592)", "experiment": "Survival of MRSA-infected C57BL/6 mice, intraperitoneal administration", "data": [{"smiles": "O=C(Nc1ccc(Cl)c(C(F)(F)F)c1)C(CCCl)C(=O)Nc1ccc(Cl)c(C(F)(F)F)c1", "note": "[SC5005]", "values": [{"measurement": "mice surviving after the treatment", "setting": "1 mg/kg i.p. at 1 h, 24 h and 48 h post-infection, N=5", "result": "only one"}, {"measurement": "mice surviving after the treatment", "setting": "3 mg/kg i.p. at 1 h, 24 h and 48 h post-infection, N=5", "result": "only one"}, {"measurement": "mice surviving till the end of the study", "setting": "10 mg/kg i.p. at 1 h, 24 h and 48 h post-infection, N=5", "result": "three of the mice"}, {"measurement": "ED50", "setting": "effective dose for 50% of the group, i.p.", "result": "~10", "unit": "mg/kg"}]}]}
